TDP1 inh = inhibitors of human tyrosyl-DNA phosphodiesterase TDP1; Q9NUW8; recombinant TDP1, AlphaScreen DNA substrate cleavage; Potency, µM (titrated, usually from 130 µM), actives largely listed as inhibitors; 350,000 tested, 0.28% active; AID 485290; also: nearly all actives have a fitted effect of over 40% in size
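Here, a 5' biotin and 3' phosphotyrosine-FITC DNA oligonucleotide reports Tdp1 activity: intact substrate bridges AlphaScreen beads, while cleavage leaves a 3' phosphate and drops signal. All incubations at room temperature.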
DT40 TDP1 no CPT = qHTS for Inhibitors of human tyrosyl-DNA phosphodiesterase 1 (TDP1): qHTS in cells in absence of CPT. DT40 Tdp1-/- hTDP1 cells, no CPT, ATP luminescence, 48 h. Potency, µM (series often up to 46.2 µM), hits mostly inhibitors. 420,000 tested, 15% active; also: nearly all actives have a fitted effect of over 55% in size
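Readout: luminescence from CellTiter-Glo after 30 min in the dark at RT. Cells: DT40 Tdp1-/- with stable hTDP1, 400/well. Exposure: compounds alone, ≥48 hr, 37 °C.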
miR-21 reporter = raises the signal of a miR-21 reporter | Potency, µM (doses to about 38.3 µM) | HeLa miR-21 FLuc reporter, luciferase, 48 h | AID 2288 | 340,000 tested, under 10 active; active = well fitted rising curve with a large enough effect; inconclusive = small, poorly fitted or top-dose-only effect; inactive = no such curve, though single readings can be large or run the other way;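 also: miR-21 action dims this reporter so a rising signal means less miR-21 action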
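Luminescence from a firefly luciferase reporter carrying a miR-21 binding site downstream, stably expressed under a CMV promoter in HeLa cells that make miR-21 endogenously, reports miRNA modulation after 48 h compound exposure up to approximately 40uM final.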
uPA surface inh = blocks generation of uPA at the cell surface | 330,000 tested, 0.31% active | cell surface uPA generation assay, qHTS | Potency, µM (top dose mostly 38.3 µM), hits mostly inhibitors | AID 540303; active = well fitted inhibition curve with a large enough effect; inconclusive = small, poorly fitted or top-dose-only effect; inactive = no such curve, though single readings can be large or run the other way; tested in mouse RAW 264.7 cells; also: nearly all actives have a fitted effect of over 55% in size
TDP1 cell CPT = growth inhibition of DT40 Tdp1-/-;hTDP1 cells with camptothecin (screen for TDP1 inhibitors). AID 686979. 420,000 tested, 12% active. chicken DT40 Tdp1-/-;hTDP1 cells + 20 nM CPT, ATP luminescence, 48 h. Potency, µM (doses to about 46.2 µM), most hits filed as inhibitors; also: nearly all actives have a fitted effect of over 55% in size
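Chicken DT40 Tdp1-/- cells complemented with human TDP1, 400 cells/well, exposed to compounds plus 20 nM camptothecin for at least 48 h at 37 C; viability read as ATP content by CellTiter-Glo luminescence.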
Large screens that a line does not name were inactive. The list is not random: actives were taken first. Their share in the collection is about 16%. Unless noted, calls follow the shape of the dose curve; as a rule, active = well fitted curve in the direction sought with a large enough effect; inconclusive = small, poorly fitted or top-dose-only effect, or another doubt; inactive = no such curve, though single readings can be large; an effect the other way counts as inactive or inconclusive.

O=C(NCCc1ccccc1)c1ccc2c(c1)CCN2S(=O)(=O)c1ccc(Cl)cc1	DT40 TDP1 no CPT inconclusive, TDP1 cell CPT inconclusive (no result: uPA surface inh)
COc1ccc(NC(=O)c2ccc3c(c2)CCN3S(=O)(=O)c2ccccc2)c(OC)c1	DT40 TDP1 no CPT inconclusive, TDP1 cell CPT inconclusive
COc1ccc(CCNC(=O)c2ccc3c(c2)CCN3S(=O)(=O)c2ccc(C)cc2)cc1	DT40 TDP1 no CPT 10µM, TDP1 cell CPT inconclusive (no result: uPA surface inh)
O=C(NCCc1ccccc1)c1ccc2c(c1)CCN2S(=O)(=O)c1ccccc1	DT40 TDP1 no CPT 15µM, TDP1 cell CPT 21µM (no result: uPA surface inh)
CSc1ncccc1C(=O)OCC(=O)N1CC2(C)CC1CC(C)(C)C2 (centres undefined)	DT40 TDP1 no CPT inconclusive, TDP1 cell CPT inconclusive (no result: miR-21 reporter)
CC(NC(=O)c1ccccc1F)c1nnc(SCC(=O)Nc2nnc(C3CC3)s2)n1C (centres undefined)	none (no result: TDP1 inh, miR-21 reporter)
COc1ccc(CC(N)C(=O)NC2C(CO)OC(n3cnc4c(N(C)C)ncnc43)C2O)cc1 (centres undefined)	none (no result: DT40 TDP1 no CPT, miR-21 reporter, uPA surface inh, TDP1 cell CPT)
COc1ccc(C(CNC(=O)C(C)(C)Oc2ccc(Cl)cc2)N2CCCCC2)cc1 (centres undefined)	DT40 TDP1 no CPT inconclusive, TDP1 cell CPT inconclusive
CCc1cc(C(=O)NCC(c2ccco2)N2CCCCC2)sc1C (centres undefined)	DT40 TDP1 no CPT 15µM, TDP1 cell CPT inconclusive (no result: miR-21 reporter)
CC(C)(Oc1ccc(Cl)cc1)C(=O)NCC(c1ccco1)N1CCCCC1 (centres undefined)	DT40 TDP1 no CPT 18µM, TDP1 cell CPT 21µM (no result: miR-21 reporter)
O=C(NCC(c1ccco1)N1CCCC1)c1ccccc1F (centres undefined)	none
CCOCc1c(C(=O)NCC(c2ccco2)N2CCCC2)oc2ccccc12 (centres undefined)	DT40 TDP1 no CPT inconclusive, TDP1 cell CPT 23µM (no result: miR-21 reporter)
O=C(NCC(c1ccco1)N1CCCC1)c1sc2ccccc2c1Cl (centres undefined)	DT40 TDP1 no CPT 21µM, TDP1 cell CPT inconclusive
O=C(NCC(c1ccco1)N1CCCC1)c1cn(-c2ccccc2)nc1-c1ccc(F)cc1 (centres undefined)	DT40 TDP1 no CPT 10µM, TDP1 cell CPT 16µM (no result: miR-21 reporter)
CCOc1ncccc1C(=O)NCC(c1ccco1)N1CCCCC1 (centres undefined)	DT40 TDP1 no CPT inconclusive, TDP1 cell CPT 21µM (no result: miR-21 reporter)
CSc1ccccc1C(=O)NCC(c1ccco1)N1CCCCC1 (centres undefined)	none
Cc1nc(NCc2cnn(C)c2)sc1-c1ccn(-c2cccc(F)c2)n1	none (no result: TDP1 inh, miR-21 reporter, uPA surface inh)
CC(=O)Nc1ccc(S(=O)(=O)N2CCN(c3cnn(C)c(=O)c3Cl)CC2)cc1	DT40 TDP1 no CPT inconclusive
CS(=O)(=O)c1ccccc1-c1nnc(NC(=O)Cc2ccccc2)o1	none
CCCn1c(=O)[nH]c(=O)c2c1nc(-c1ccc(OC(F)(F)C(F)C(F)(F)F)cc1)n2CCOC (centres undefined)	DT40 TDP1 no CPT 16µM, TDP1 cell CPT inconclusive
CCCCn1c(-c2cccc(F)c2)nc2c1c(=O)[nH]c(=O)n2CC(C)C	DT40 TDP1 no CPT inconclusive
CCCCn1c(-c2ccc(OC(F)F)cc2)nc2c1c(=O)[nH]c(=O)n2CC(C)C	DT40 TDP1 no CPT 23µM, TDP1 cell CPT 21µM
COCCn1c(-c2ccc3ccccc3c2)nc2c1c(=O)[nH]c(=O)n2CC(C)C	DT40 TDP1 no CPT 23µM, TDP1 cell CPT inconclusive
COCCn1c(-c2ccsc2)nc2c1c(=O)[nH]c(=O)n2CC(C)C	none
CCCn1c(=O)[nH]c(=O)c2c1nc(-c1ccc(C#N)cc1)n2CCOC	none
CN(Cc1ccccc1OCCO)CC1CCCN(CCc2ccc(Cl)cc2)C1 (centres undefined)	DT40 TDP1 no CPT inconclusive, TDP1 cell CPT inconclusive
Cc1cc(O)c(C2=Nc3ccccc3SC(c3ccc(Cl)cc3)C2)c(=O)o1 (centres undefined)	DT40 TDP1 no CPT 7.3µM, TDP1 cell CPT 5.2µM
Cc1cc(O)ccc1Nc1nc2ccccc2nc1Nc1ccc(O)cc1C	DT40 TDP1 no CPT 5.2µM, TDP1 cell CPT 8.2µM
Cc1ccc(Nc2nc3ccccc3s2)c(C)c1	DT40 TDP1 no CPT inconclusive, TDP1 cell CPT inconclusive
Cc1ccc2cc(CCNS(=O)(=O)c3ccc(F)cc3)c(=O)[nH]c2c1C	DT40 TDP1 no CPT 18µM, TDP1 cell CPT 21µM (no result: TDP1 inh)
Cc1cc(C)c(S(=O)(=O)NCCc2cc3c(C)ccc(C)c3[nH]c2=O)c(C)c1	DT40 TDP1 no CPT 3.7µM, TDP1 cell CPT 7.3µM (no result: uPA surface inh)
Cc1ccc(S(=O)(=O)NCCc2cc3ccc(C)c(C)c3[nH]c2=O)cc1	DT40 TDP1 no CPT 18µM, TDP1 cell CPT inconclusive
O=C(N[C@@H]1C/C=C\C[C@H](CC(=O)N(CCO)Cc2ccccc2)C(=O)NC[C@@H](c2ccccc2)OC1=O)OCC1c2ccccc2-c2ccccc21	DT40 TDP1 no CPT 5.8µM, uPA surface inh inconclusive, TDP1 cell CPT 6.5µM (no result: miR-21 reporter)
O=C1CCC/C=C/C[C@@H](CC(=O)N(CCO)Cc2ccccc2)C(=O)NC[C@@H](c2ccccc2)O1	none (no result: miR-21 reporter)
O=C(N[C@@H]1C/C=C\C[C@@H](CC(=O)N(CCO)Cc2ccccc2)C(=O)NC[C@H](c2ccccc2)OC1=O)OCC1c2ccccc2-c2ccccc21	DT40 TDP1 no CPT 7.3µM, uPA surface inh inconclusive, TDP1 cell CPT 2.6µM (no result: miR-21 reporter)
O=C1CC/C=C\C[C@@H](CC(=O)N(CCO)Cc2ccccc2)C(=O)NC[C@@H](c2ccccc2)O1	none (no result: miR-21 reporter)
CCC(c1nc2ccccc2[nH]1)N(CCCn1ccnc1)C(=O)c1ccc(C(F)(F)F)cc1 (centres undefined)	TDP1 cell CPT inconclusive (no result: TDP1 inh, miR-21 reporter, uPA surface inh)
O=C(COc1ccccc1F)Nc1c(C(=O)Nc2cccc(F)c2)oc2ccccc12	DT40 TDP1 no CPT inconclusive (no result: uPA surface inh)
Cn1c(-c2ccccc2)c(/C=N/NC(=O)c2cccnc2)c2ccccc21	DT40 TDP1 no CPT 23µM
O=C(N/N=C/c1cccc2ccccc12)c1cccnc1	none (no result: TDP1 inh)
O=C(N/N=C/c1c(-c2ccccc2)[nH]c2ccccc12)c1cccnc1	DT40 TDP1 no CPT 3.3µM, uPA surface inh inconclusive, TDP1 cell CPT 6.5µM
COc1ccc(-c2nnc3n2N=C(c2c(OC)cccc2OC)CS3)cc1	none (no result: DT40 TDP1 no CPT, miR-21 reporter, uPA surface inh, TDP1 cell CPT)
O=C(c1ccc(C(F)(F)F)cc1)C1CCCN(C(=O)Cn2cnnn2)C1 (centres undefined)	none
Cc1cc(Br)ccc1NC(=O)c1ccccc1-c1ccccc1	DT40 TDP1 no CPT inconclusive, uPA surface inh inconclusive, TDP1 cell CPT inconclusive
Cc1ccc(NS(=O)(=O)c2ccc(C(=O)N3CCC3)cc2)cc1	DT40 TDP1 no CPT inconclusive, TDP1 cell CPT inconclusive (no result: miR-21 reporter)
CCOC(=O)N1CCN(C(=O)c2ccc(S(=O)(=O)Nc3ccc(C)cc3)cc2)CC1	DT40 TDP1 no CPT 10µM, TDP1 cell CPT 9.2µM (no result: miR-21 reporter)
CCOC(=O)N1CCN(C(=O)c2ccc(NS(=O)(=O)c3ccc(C)cc3)cc2)CC1	DT40 TDP1 no CPT 13µM, TDP1 cell CPT 18µM
CCOC(=O)N1CCN(C(=O)c2ccc(NS(C)(=O)=O)cc2)CC1	none
